# From patent US20230128344A1 (UNIVERSITY OF SOUTHERN CALIFORNIA, published 2023)
# B1: DAR4-ARC-ADC (DAR4-ARC-IgG conjugated with 2'-Cl-araNAD+-MMAF) (antibody)
# heavy: DIQLQESGPGLVKPSQSLSLTCSVTGYSITSAYYWNWIRQFPGNKLEWMGYISYDGRNNYNPSLKNRISITRDTSKNQFFLKLNSVTTEDTATYYCAKEGDYDVGNYYAMDYWGQGTSVTVSSARTKGPSVFPLAPSSKSTSGGTAALGCLVKDYFPEPVTVSWNSGALTSGVHTFPAVLQSSGLYSLSSVVTVPSSSLGTQTYICNVNHKPSNTKVDKKV[about 500 residues with a human IgG1 Fc skipped]
# light: ENVLTQSPAIMSASPGEKVTMTCRASSNVISSYVHWYQQRSGASPKLWIYSTSNLASGVPARFSGSGSGTSYSLTISSVEAEDAATYYCQQYSGYPLTFGAGTKLELKRAAAAPSVFIFPPSDEQLKSGTASVVCLLNNFYPREAKVQWKVDNALQSGNSQESVTEQDSKDSTYSLSSTLTLSKADYEKHKVYACEVTHQGLSSPVTKSFNRGECGGGGS[about 250 residues skipped]
# modifications: 2'-Cl-arabinose-ADP-MMAF on Glu226 of the CD38 domain (CD38 numbering)
# Molecular target: T1, hCLL-1 on U937 human AML cells (human, UniProt Q5QGZ9 1-265)
# T1 sequence (looked up): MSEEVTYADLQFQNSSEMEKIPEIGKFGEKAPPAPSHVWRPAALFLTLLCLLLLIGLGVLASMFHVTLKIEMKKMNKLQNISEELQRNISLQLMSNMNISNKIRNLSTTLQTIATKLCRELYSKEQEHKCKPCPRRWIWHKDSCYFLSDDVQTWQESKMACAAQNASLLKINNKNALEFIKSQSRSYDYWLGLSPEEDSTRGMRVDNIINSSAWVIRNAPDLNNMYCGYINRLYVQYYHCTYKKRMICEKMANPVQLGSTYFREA
# Experiment: cell-based or functional assay
binder,measurement,value
B1,"in vitro cytotoxicity EC50 on U937 (CLL-1+) cells (MTT, 72 hours)",25 pM
